Test results as given in ChEMBL document CHEMBL4823289, “Conformational-Analysis-Guided Discovery of 2,3-Disubstituted Pyridine IDO1 Inhibitors” (ACS Med Chem Lett, 2021).

By UniProt entry, the sequences of proteins in these tests, tags left out. Where a name states a change or a piece, a line headed by the entry shows the natural chain unless it says otherwise.
UniProt P28776: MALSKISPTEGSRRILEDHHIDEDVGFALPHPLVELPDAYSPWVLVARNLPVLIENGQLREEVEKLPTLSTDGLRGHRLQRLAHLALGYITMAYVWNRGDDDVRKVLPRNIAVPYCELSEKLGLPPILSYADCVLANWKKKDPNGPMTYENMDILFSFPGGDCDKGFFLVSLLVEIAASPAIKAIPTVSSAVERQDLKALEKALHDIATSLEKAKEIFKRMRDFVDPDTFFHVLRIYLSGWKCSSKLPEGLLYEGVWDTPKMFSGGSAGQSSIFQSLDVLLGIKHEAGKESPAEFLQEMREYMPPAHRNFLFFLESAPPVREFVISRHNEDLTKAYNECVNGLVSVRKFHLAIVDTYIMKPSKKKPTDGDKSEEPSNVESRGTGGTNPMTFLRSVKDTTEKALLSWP

Target: Indoleamine 2,3-dioxygenase 1 (Mus musculus) (UniProt P28776)
Assay: In vivo inhibition of IDO1 in mouse xenografted with human SK-OV-3 cells assessed as reduction in tumor kynurenine AUEC at 60 mg/kg, po QD for 5 days measured up to 24 hrs after dosing relative to control
Assay type: functional, organism-based
Parameters: scale not given: the % may be the effect or the level left
Conditions: time 5.0 day

Work on `CC[C@@H](NC(=O)c1ccc(OC)nc1)[C@H]1CC[C@@H](c2ccnc(OC)c2C(F)F)CC1` yielded an Activity of 57%.
